Experimental data taken from PubChem BioAssay AID493083 (Broad Institute, 2011).
This is one part of the list. Potency and affinity values are given separately. Activity calls are given as the source filed them.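 How the source made its calls: active means compounds lowering signal whose fitted AC50 is at most ten times the top tested dose; inconclusive means flat fit with moderate inhibition, or poor curve fit; inactive means the rest.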

Assay: GFP reporter loss versus dox-driven RFP – NIH3T3 R4 cells, cherry-pick, set 3, dose response (AID 493083);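 further: 0% = neutral control wells and -100% = didemnin B positive control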
Details: NIH3T3 R4 HSF-1 GFP reporter, heat shock, 48 h; at 19.5 µM (top of the series)

Row | SMILES | activity change, negative = inhibition
1 | CP(=O)(Nc1ccccc1F)Oc1ccccc1 (stereo unspecified) | inactive: -8.99%
